According to PMC11729909, “FOXP1 phosphorylation antagonizes its O-GlcNAcylation in regulating ATR activation in response to replication stress” (The EMBO Journal, 2024):

Tests used:
Test in all cases: pull-down; GST pull-down: GST-FOXP1 or its deletion mutants immobilised on Glutathione Sepharose 4B, incubated with bacterially purified His-RPA32 or His-RPA70 for 4 h at 4 °C
Details in all cases: both partners purified
[1] = biological target: T1, GST-tagged FOXP1 (wild type, full length) (human, UniProt Q9H334 1-677)
T1 construct: FOXP1, human, full length; Vector pGEX-4T-1; also called GST-FOXP1; pGEX-4T-1-FOXP1; source: E. coli, purified
T1 sequence (looked up): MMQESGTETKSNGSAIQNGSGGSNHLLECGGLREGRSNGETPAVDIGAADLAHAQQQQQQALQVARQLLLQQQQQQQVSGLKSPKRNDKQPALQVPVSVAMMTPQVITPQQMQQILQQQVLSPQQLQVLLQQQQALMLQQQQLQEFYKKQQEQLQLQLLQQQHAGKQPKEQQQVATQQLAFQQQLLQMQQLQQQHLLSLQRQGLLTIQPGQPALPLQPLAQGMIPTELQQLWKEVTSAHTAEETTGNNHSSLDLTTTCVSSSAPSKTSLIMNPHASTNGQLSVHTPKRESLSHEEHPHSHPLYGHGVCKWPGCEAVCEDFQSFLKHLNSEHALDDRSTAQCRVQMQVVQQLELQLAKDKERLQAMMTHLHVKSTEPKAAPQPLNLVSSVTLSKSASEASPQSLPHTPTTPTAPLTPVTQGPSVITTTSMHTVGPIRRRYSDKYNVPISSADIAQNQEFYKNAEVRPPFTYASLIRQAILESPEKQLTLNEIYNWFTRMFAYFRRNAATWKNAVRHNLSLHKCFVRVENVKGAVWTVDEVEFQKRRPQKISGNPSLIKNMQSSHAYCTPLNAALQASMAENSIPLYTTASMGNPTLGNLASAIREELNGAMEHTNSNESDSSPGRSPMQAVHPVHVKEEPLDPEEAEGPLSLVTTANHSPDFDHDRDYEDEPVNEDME

[2] = biological target: T2, GST-tagged FOXP1 Δ431–450 (human, UniProt Q9H334 1-677, Δ431–450)
T2 construct: also called pGEX-4T-1-FOXP1 Δ431–450; source: E. coli, purified
T2 sequence (looked up): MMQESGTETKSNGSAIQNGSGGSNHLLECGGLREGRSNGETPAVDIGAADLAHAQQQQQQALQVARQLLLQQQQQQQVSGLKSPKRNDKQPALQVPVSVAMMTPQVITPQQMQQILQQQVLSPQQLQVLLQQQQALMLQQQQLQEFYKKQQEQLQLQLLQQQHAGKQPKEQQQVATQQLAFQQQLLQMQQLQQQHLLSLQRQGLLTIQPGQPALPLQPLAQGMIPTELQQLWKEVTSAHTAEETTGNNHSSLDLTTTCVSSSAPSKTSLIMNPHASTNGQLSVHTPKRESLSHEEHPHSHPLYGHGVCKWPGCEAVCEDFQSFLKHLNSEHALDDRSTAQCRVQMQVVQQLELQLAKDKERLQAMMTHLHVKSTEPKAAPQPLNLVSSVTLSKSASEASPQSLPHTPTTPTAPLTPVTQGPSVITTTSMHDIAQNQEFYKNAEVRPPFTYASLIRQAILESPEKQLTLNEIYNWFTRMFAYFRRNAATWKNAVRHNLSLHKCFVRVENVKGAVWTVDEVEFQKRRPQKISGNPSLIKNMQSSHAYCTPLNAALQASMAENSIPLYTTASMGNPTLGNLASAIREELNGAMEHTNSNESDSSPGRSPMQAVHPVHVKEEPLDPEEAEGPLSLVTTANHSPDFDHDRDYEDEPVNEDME

[3] = biological target: T3, GST-tagged FOXP1 Δ451–464 (human, UniProt Q9H334 1-677, Δ451–464)
T3 construct: source: E. coli, purified
T3 sequence (looked up): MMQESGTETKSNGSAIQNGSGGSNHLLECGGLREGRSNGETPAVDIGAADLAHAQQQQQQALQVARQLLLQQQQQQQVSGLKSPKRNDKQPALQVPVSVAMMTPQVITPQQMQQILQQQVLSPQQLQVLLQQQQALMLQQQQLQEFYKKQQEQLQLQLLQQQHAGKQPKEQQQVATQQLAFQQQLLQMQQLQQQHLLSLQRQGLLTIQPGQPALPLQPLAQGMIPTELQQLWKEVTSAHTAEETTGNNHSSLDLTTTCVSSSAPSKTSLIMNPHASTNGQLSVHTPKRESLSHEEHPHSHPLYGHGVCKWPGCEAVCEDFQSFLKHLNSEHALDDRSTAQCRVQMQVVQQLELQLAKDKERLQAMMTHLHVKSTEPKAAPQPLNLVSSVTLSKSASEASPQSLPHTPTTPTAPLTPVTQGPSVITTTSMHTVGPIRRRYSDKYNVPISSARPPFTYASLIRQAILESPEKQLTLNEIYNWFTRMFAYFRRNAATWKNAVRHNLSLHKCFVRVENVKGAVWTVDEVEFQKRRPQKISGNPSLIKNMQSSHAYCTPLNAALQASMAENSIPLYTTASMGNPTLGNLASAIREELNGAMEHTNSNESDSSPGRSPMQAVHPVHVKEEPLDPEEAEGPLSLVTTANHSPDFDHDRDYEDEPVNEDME

binding result [1]: binds
binding result [2]: binds
binding result [3]: binds
B1: His-tagged RPA32 (natural protein, human, UniProt P15927 1-270, looked up)
chain: MWNSGFESYGSSSYGGAGGYTQSPGGFGSPAPSQAEKKSRARAQHIVPCTISQLLSATLVDEVFRIGNVEISQVTIVGIIRHAEKAPTNIVYKIDDMTAAPMDVRQWVDTDDTSSENTVVPPETYVKVAGHLRSFQNKKSLVAFKIMPLEDMNEFTTHILEVINAHMVLSKANSQPSAGRAPISNPGMSEAGNFGGNSFMPANGLTVAQNQVLNLIKACPRPEGLNFQDLKNQLKHMSVSSIKQAVDFLSNEGHIYSTVDDDHFKSTDAE
notes: RPA32, human, full length; Vector pet28a; also called His-RPA32; pet28a-RPA32; source: E. coli, purified
